Experimental data reported in patent US6767890 (COASTSIDE BIO RESOURCES, dated 2004).

Target: T1, Interleukin-1α receptor on mouse Swiss/3T3 cells (mouse, UniProt P13504 20-576)
T1 construct: whole, on cells; also called Interleukin-1α (assay target)
T1 sequence (looked up): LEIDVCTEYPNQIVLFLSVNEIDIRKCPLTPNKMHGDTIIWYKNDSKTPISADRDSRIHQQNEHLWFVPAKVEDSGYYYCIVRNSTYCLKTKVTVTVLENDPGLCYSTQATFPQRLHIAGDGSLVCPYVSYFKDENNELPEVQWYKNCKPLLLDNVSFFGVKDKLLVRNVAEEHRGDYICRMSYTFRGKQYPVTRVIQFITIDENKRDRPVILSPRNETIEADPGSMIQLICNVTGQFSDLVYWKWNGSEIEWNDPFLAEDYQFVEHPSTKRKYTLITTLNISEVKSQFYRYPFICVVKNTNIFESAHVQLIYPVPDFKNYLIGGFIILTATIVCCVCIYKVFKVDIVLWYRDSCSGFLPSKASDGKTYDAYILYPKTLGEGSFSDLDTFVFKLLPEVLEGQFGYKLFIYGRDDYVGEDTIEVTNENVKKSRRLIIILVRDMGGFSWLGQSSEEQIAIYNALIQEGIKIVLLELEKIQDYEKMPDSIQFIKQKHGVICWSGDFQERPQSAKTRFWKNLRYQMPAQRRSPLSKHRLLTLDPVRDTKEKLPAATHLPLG
Assay: historical value, unlabeled IL-1 alpha displacing [125I]IL-1 alpha on mouse Swiss/3T3 cells
Description: Maximum total binding and nonspecific binding were determined each time each assay was run. Nonspecific binding was defined as the proportion of total binding not displaced by unlabeled ligand specific for the receptor. Specific binding was defined as the proportion of total binding that was displaced by unlabeled ligand.

B1: Interleukin-1α (ligand, UniProt P01583 113-271, looked up)
chain: SAPFSFLSNVKYNFMRIIKYEFILNDALNQSIIRANDQYLTAAALHNLDEAVKFDMGAYKSSKDDAKITVILRISKTQLYVTAQDEDQPVLLKEMPEIPKTITGSETNLLFFWETHGTKNYFTSVAHPNLFIATKQDYWVCLAGGPPSITDFQILENQA
modifications: 125I label on the radioligand
notes: also called IL-1 alpha; [125I]IL-1 alpha
IC50: 0.031 nM
Ki: 0.023 nM
